In US12085575B2, “Compositions and methods for detecting proteinopathies” (BOARD OF SUPERVISORS OF LOUISIANA STATE UNIVERSITY AND …, priority 2011, dated 2024):

Test system: ISG15 pathway
Experiment: ISG15 immunoblot of urine-derived renal cells treated with IFNβ
Type: cell-based, human
Settings: renal cells from normal children, IFNβ 24 h
Excerpt: We have obtained human de-identified urine samples from normal children, and isolated renal cells as described in (40). […] Also, similar to normal cells and tissues, these renal cells minimally express ISG15 (FIG. 41C, lanes 1 and 3). However, the ISG15 pathway is functional and induced in response to IFNβ (FIG. 41C, lanes 2 and 4). These cells also retained a normal karyotype in culture (FIG. 41D).

B1: IFNβ: interferon used to induce the ISG15 pathway in renal cells (protein, UniProt P01574 22-187, looked up)
Interferon beta: MSYNLLGFLQRSSNFQCQKLLWQLNGRLEYCLKDRMNFDIPEEIKQLQQFQKEDAALTIYEMLQNIFAIFRQDSSSTGWNETIVENLLANVYHQINHLKTVLEEKLEKEDFTRGKLMSSLHLKRYYGRILHYLKAKEYSHCAWTIVRVEILRNFYFINRLTGYLRN
- ISG15 pathway expression: induced
